Results from patent US20080279957A1, “Immunomodulating compositions from bile” (Lorus Therapeutics Inc., priority 2000, published 2008).

Tested on: lymphocytes
Assay: Stimulation of lymphocyte-mediated cytotoxic function
Type: cell-based, human
Details: optimal stimulating concentration of IL-2

## Interleukin-2 [IL-2]
  Lymphocyte-mediated cytotoxic function: 472.5 Lytic Units
